For orientation: stoichiometry N means a count of units in the complex or per binding partner.

For the experiment, the target named is GST-tagged full-length HRAS (UniProt Q61411). In words: SEC. Background: In gel filtration, larger molecules generally elute earlier.

“GST-tagged full-length HRAS (from UniProt Q61411 1-189) (natural protein)” came in with a stoichiometry N of 2.
